# Data reported in ChEMBL document CHEMBL3603807, “Discovery of 2-arylamino-4-(1-methyl-3-isopropylsulfonyl-4-pyrazol-amino)pyrimidines as potent anaplastic lymphoma kinase (ALK) inhibitors” (Bioorg Med Chem Lett, 2015).
# Columns and labels:
# NCI-H2228 = experiment: Antiproliferative activity against human NCI-H2228 cells assessed as inhibition of cell proliferation incubated for 96 hrs by cell-titer-Glo assay; assay type: functional, cell-based; settings: NCI-H2228, 96 h
# [1] = Antiproliferative activity against human KARPAS299 cells assessed as inhibition of cell proliferation incubated for 96 hrs by cell-titer-Glo assay; assay type: functional, cell-based; settings: KARPAS-299, 96 h
IC50 (NCI-H2228) [µM],Structure (SMILES),IC50 [1] [µM]
0.052,Cc1cc(Nc2ncc(Cl)c(Nc3cn(C)nc3S(=O)(=O)C(C)C)n2)c(OC2CC2)cc1C1CCN(C)CC1,
0.125,CC(C)S(=O)(=O)c1nn(C)cc1Nc1nc(Nc2cc(F)c(C3CCN(C)CC3)cc2OC2CC2)ncc1Cl,0.017
0.058,Cc1cc(Nc2ncc(Cl)c(Nc3cn(C)nc3S(=O)(=O)C(C)C)n2)c(OC2CC2)cc1C1CCN(C(C)C)CC1,
0.096,Cc1cc(Nc2ncc(Cl)c(Nc3cn(C)nc3S(=O)(=O)C(C)C)n2)c(OC(C)C)cc1C1CCN(C)CC1,
